Lamin A splicing: changes lamin A minigene splicing in HeLa cells. HeLa LMNA splicing GFP/RFP minigene ratio, 48 h. Potency, µM (doses to about 46.1 µM), for the others: top-dose ratio change, negative = inhibition, usual class: inhibitors. 200,000 compounds, 0.01% hits. AID 1487; active = well fitted inhibition curve with a large enough effect in the signal ratio, with a control signal flat, not every such curve was filed as active; inconclusive = small, poorly fitted or top-dose-only effect, or effect the other way, or a change in a side signal; the % refers to the signal ratio; note: potency is the fitted concentration of half-maximal effect; % is set by controls: 0 for no effect and ±100 for the full control effect
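S3 HeLa stable clones carrying a lamin A-EGFP splicing minigene plus DsRed2 were seeded at 600 cells/well in Opti-MEM with 2% FBS, pin-dosed and incubated 48 h at 37°C. Acumen cytometry (488 nm) gave the GFP/RFP total-intensity ratio.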
ALDH1A1 inh: inhibitors of human aldehyde dehydrogenase 1A1 | P00352 | Potency, µM (highest dose often 75.3 µM), for inactives: top-dose activity, negative = inhibition, actives largely listed as inhibitors | Purified ALDH1A1, NADH fluorescence, propionaldehyde substrate | 220,000 compounds, 7.3% hits; active = well fitted inhibition curve with a large enough effect, not every such curve was filed as active; inconclusive = small, poorly fitted or top-dose-only effect, or another doubt; inactive = no such curve, though single readings can be large or run the other way;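 note: potency is the fitted concentration of half-maximal effect; plate controls were no enzyme wells and a reference inhibitor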
JMJD2E inh: blocks human JMJD2E demethylase activity; AID 2147; B2RXH2; 230,000 compounds, 1.6% hits; JMJD2E catalytic domain, FDH-coupled NADH fluorescence (FDH is formaldehyde dehydrogenase); Potency, µM (doses to about 57.1 µM), for the others: at the highest dose activity change, negative = inhibition, usual class: inhibitors; active = well fitted inhibition curve with a large enough effect, not every such curve was filed as active; inconclusive = small, poorly fitted or top-dose-only effect, or another doubt; inactive = no such curve, though single readings can be large or run the other way;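 note: potency is the fitted concentration of half-maximal effect; 0% = wells with enzyme and -100% = buffer wells without enzyme; nearly all actives have a fitted effect of over 50% in size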
G9a block: inhibitors of human histone lysine methyltransferase G9a; Q96KQ7; G9a H3K9 monomethylation, AlphaScreen, 2 h; Potency, µM (top dose mostly 102 µM), for inactives: at the top dose activity, negative = inhibition, usual class: inhibitors; 350,000 compounds, 8.8% hits; AID 504332; note: potency is the fitted concentration of half-maximal effect; % is set by controls: 0 for no effect and ±100 for the full control effect; nearly all actives have a fitted effect of over 75% in size
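Using a bead-based AlphaScreen, monomethylated H3K9 product from 2 h room-temperature reactions (G9a 20 nM, peptide 500 nM, SAM 20 uM) was detected with 0.5 ug/mL rabbit anti-H3K9me1 antibody.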
miR-21 reporter: raises the signal of a miR-21 reporter | HeLa miR-21 FLuc reporter, luciferase, 48 h | Potency, µM (highest dose often 38.3 µM), inactives show at the highest dose reporter change, positive = more light | 340,000 tested, under 10 active | AID 2288; active = well fitted rising curve with a large enough effect; inconclusive = small, poorly fitted or top-dose-only effect; inactive = no such curve, though single readings can be large or run the other way;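 note: % of control where 0% means no effect; miR-21 action dims this reporter so a rising signal means less miR-21 action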
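Using DMEM plus 10% FBS, HeLa miR-21-FLuc cells are incubated with test compounds (final up to about 40uM) for 48 hours; firefly luciferase signal is then imaged following reagent-mediated lysis.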
Sfp PPTase inh: qHTS Assay for Inhibitors of Bacillus subtilis Sfp phosphopantetheinyl transferase (PPTase); 4'-phosphopantetheinyl transferase ffp (Bacillus subtilis), Q9F4F7; Biochemical Sfp PPTase activity, qHTS; Potency, µM, for inactives: max response, negative = inhibition, most hits filed as inhibitors; hit rate 3.5% among 310,000; AID 1490, 2009; active = well fitted inhibition curve with a large enough effect; inconclusive = small, poorly fitted or top-dose-only effect, or another doubt; inactive = no such curve, though single readings can be large or run the other way;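 also: the enzyme is Sfp with the accession as filed and its product quenches rhodamine fluorescence; potency is read from the fitted curve at half-maximal effect; 0% = enzyme reaction without inhibitor and -100% = no enzyme wells; top concentration of the series not given in the record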
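Reaction rates are the 30-min fluorescence difference (ex 525, em 598 nm) in wells containing 15 nM Sfp, 5 uM rhodamine-CoA and 12.5 uM BHQ-2-YbbR at pH 7.6 with 10 mM MgCl2.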
Starred values were filed as active, the others as inactive; ? = inconclusive; nt = no result; [ ] = dose if it differs, or a comment. Sampled rows, rich in hits. Any-hit rate of the full collection: about 13%. Unless noted, calls come from the whole dose curve; as a rule, active = well fitted curve in the direction sought with a large enough effect; inconclusive = small, poorly fitted or top-dose-only effect, or another doubt; inactive = no such curve, though single readings can be large; an effect the other way counts as inactive or inconclusive.

Below each SMILES: Lamin A splicing | ALDH1A1 inh | JMJD2E inh | G9a block | miR-21 reporter | Sfp PPTase inh
#1 CCCCC(CC)CNC(=O)Cc1ccc(-n2c(=O)[nH]c3ccccc3c2=O)cc1 (stereo not drawn)
→ 9.1%[46 µM] | nt | nt | 8.4%[59 µM] | 11.3% | nt
#2 CCOc1ccc(NC(C)c2cc(Cl)ccc2O)cc1 (stereo not drawn)
→ 1.1% | ? | 5.4% | 39.8µM* | 7.0% | 20.1%
#3 CC(Nc1ccc(Cl)cc1)c1cc(Cl)ccc1O (stereo not drawn)
→ -6.5% | -1.0% | -1.9% | 43.3%[59 µM] | -1.1% | -24.5%
#4 Cc1c(CCO)c(=O)n(-c2ccccc2)n1S(=O)(=O)c1c(Cl)cc(Cl)cc1Cl
→ 4.8% | -3.0% | -5.9% | -24.9%[0.0925 µM] | 3.3% | 70.8µM*
#5 C(=C\c1ccccc1)/CSc1nnc(-c2ccccn2)n1Cc1ccco1
→ ? | -12.6% | 2.4% | 15.8µM* | 17.0% | 31.6µM*
#6 c1ccc(-c2nnc(SCc3nc4ccccc4[nH]3)n2Cc2ccco2)nc1
→ ? | 0.6% | 0.0% | 50.1µM* | 1.5% | -6.3%
#7 Clc1ccccc1CSc1nnc(-c2ccccn2)n1Cc1ccco1
→ ? | ? | 0.3% | ? | -9.0% | 56.2µM*
#8 NC(=O)CSc1nnc(-c2ccccn2)n1Cc1ccco1
→ nt | nt | 4.9% | -34.4% | -0.6% | 1.1%
#9 Clc1ccc(OCc2nnc(SCc3nc4ccccc4[nH]3)n2Cc2ccco2)cc1
→ ? | 3.4% | -2.2% | 39.8µM* | ? | -1.7%
#10 CCOc1cc(/C=N/NC(=O)c2ccc(N(C)S(=O)(=O)c3ccccc3)cc2)ccc1OC
→ nt | nt | nt | 12.3% | 1.7% | 5.3%
#11 c1coc(Cn2c(SCc3nc4ccccc4[nH]3)nnc2-c2cnccn2)c1
→ ? | 3.3% | -28.2% | 31.6µM* | -5.1% | -1.5%
#12 Clc1cccc(-c2nnc(SCc3nc4ccccc4[nH]3)n2Cc2ccco2)c1
→ ? | -3.0% | -3.3% | 39.8µM* | 4.3% | 8.4%
#13 COc1ccc(CCNC(=O)c2cc3ccccn3n2)c(OC)c1OC
→ 0.0% | 22.4µM* | 1.5% | 3.2% | -28.5% | 24.1%
#14 O=C(CN1C(=O)NC2(CCCCCC2)C1=O)NCCc1ccc(F)cc1
→ nt | nt | nt | -8.6%[59 µM] | nt | nt
#15 C=CCn1cc(C(=O)N2CCN(C)CC2)c(=O)c2cc(S(=O)(=O)N3CCCC3)ccc21
→ -0.7% | ? | -11.3% | -49.1% | 1.0% | -10.7%
#16 CCn1cc(C(=O)NCC2CCCO2)c(=O)c2cc(S(=O)(=O)N(C)C)ccc21 (stereo not drawn)
→ -13.7% | 4.1% | -3.8% | 17.1%[59 µM] | -10.0% | 14.7%
#17 C=CCn1cc(C(=O)OC)c(=O)c2cc(S(=O)(=O)N3CCCCCC3)ccc21
→ 2.4%[9.22 µM] | 14.1µM* | -1.4% | -49.2% | 5.8% | -2.7%
#18 C=CCn1cc(C(=O)NCC2CCCO2)c(=O)c2cc(S(=O)(=O)N3CCCCCC3)ccc21 (stereo not drawn)
→ 5.9% | 12.6µM* | -11.1% | 6.7%[59 µM] | -2.8% | 3.3%
#19 O=C(c1cccc(N2C(=O)c3ccccc3C2=O)c1)N1CCCCCC1
→ 2.8%[46 µM] | ? | -5.3% | 22.4µM* | 1.3% | -16.9%
#20 O=C(O)c1cccc(N2C(=O)C3C4C=CC(C4=C(c4ccccc4)c4ccccc4)C3C2=O)c1 (stereo not drawn)
→ nt | -3.4% | -2.1% | 28.2µM* | -8.5% | 35.5µM*
#21 O=C(c1cccc(N2C(=O)C3C4C=CC(C4)C3C2=O)c1)N1CCCCCC1 (stereo not drawn)
→ 19.9% | -3.9% | 3.2% | 1.26µM* | -4.5% | 17.8%
#22 COc1ccc(N2CCN(C(=O)c3cccc(N4C(=O)C5C6C=CC(C6)C5C4=O)c3)CC2)cc1 (stereo not drawn)
→ nt | nt | nt | -37.3%[59 µM] | 0.1% | 12.3%
#23 O=C(O)c1cccc(N2C(=O)c3ccc4c5c(ccc(c35)C2=O)C(=O)N(c2cccc(C(=O)O)c2)C4=O)c1
→ nt | nt | -18.6% | 12.6%[12.7 µM] | -1.0% | -1.8%
#24 COc1cc2ccccc2cc1C(=O)OCc1nc2ccsc2c(=O)[nH]1
→ nt | nt | nt | 5.5%[12.7 µM] | nt | nt
#25 O=C(NCC(c1ccc2c(c1)OCO2)N1CCN(c2ccccc2F)CC1)c1ccccc1F (stereo not drawn)
→ ? | nt | nt | -31.8%[59 µM] | 6.9% | nt
#26 COC(=O)c1ccc(NC(=O)CCn2cccc2)cc1
→ -2.7% | 0.1% | 2.6% | -14.1%[59 µM] | -18.1% | 11.4%
#27 CCc1ccc(NC(=O)CCn2cccc2)cc1
→ 7.8% | -15.7% | -4.8% | 50.1µM* | -25.2% | -3.6%
#28 COc1ccc(Cl)cc1NC(=O)CN1C(=O)C(C)(C)c2cc(S(=O)(=O)N3CCCCC3)ccc21
→ -26.3%[46 µM] | nt | nt | 6.7%[59 µM] | 7.8% | nt
#29 CCN(CC)c1ccc(N=Nc2ncn[nH]2)cc1
→ ? | 8.4% | 14.1µM* | 1µM* | -27.8% | 8.91µM*
#30 CCN(CC)c1ccc(N=Nc2nn(C)c(C)c2[N+](=O)[O-])cc1
→ 10.6% | -11.5% | -0.1% | ? | -86.3% | -13.6%

Records above shown as hits in ALDH1A1 inh:
item	structure	ALDH1A1 inh	JMJD2E inh	G9a block	miR-21 reporter	Sfp PPTase inh
13	COc1ccc(CCNC(=O)c2cc3ccccn3n2)c(OC)c1OC	22.4µM*	1.5%	3.2%	-28.5%	24.1%
17	C=CCn1cc(C(=O)OC)c(=O)c2cc(S(=O)(=O)N3CCCCCC3)ccc21	14.1µM*	-1.4%	-49.2%	5.8%	-2.7%
18	C=CCn1cc(C(=O)NCC2CCCO2)c(=O)c2cc(S(=O)(=O)N3CCCCCC3)ccc21 (stereo not drawn)	12.6µM*	-11.1%	6.7%[59 µM]	-2.8%	3.3%

The list continues:
Below each SMILES: Lamin A splicing | ALDH1A1 inh | JMJD2E inh | G9a block | miR-21 reporter | Sfp PPTase inh
#31 Cc1c(N=CC=Nc2c(C)n(C)n(-c3ccccc3)c2=O)c(=O)n(-c2ccccc2)n1C
→ -0.2% | 10.1% | 0.1% | -8.9%[59 µM] | -6.5% | 4.8%
#32 COc1cc(N=Nc2c(C)n(C)n(-c3ccccc3)c2=O)ccc1N
→ nt | -9.6% | -9.8% | 50.1µM* | -15.9% | 10.0%
#33 O=C(Nc1ccccc1)N1CCN(c2cccc(C(F)(F)F)c2)CC1
→ ? | 11.0% | 1.4% | 9.9% | 7.4% | 2.6%
#34 Nc1cc(Cl)ccc1N1CCCC1
→ nt | 6.8% | 0.8% | 14.1µM* | 11.8% | -5.6%
#35 COc1cccc(N2CCN(c3ccc(N4C(=O)CCC4=O)cc3[N+](=O)[O-])CC2)c1
→ nt | -7.3% | 6.1% | 50.1µM* | 4.1% | -2.4%
#36 O=C(O)c1cc([N+](=O)[O-])cc([N+](=O)[O-])c1N1CCN(c2cccc(C(F)(F)F)c2)CC1
→ nt | nt | nt | 56.2µM* | 15.1% | -6.9%
#37 Nc1cc(Cl)ccc1N1CCOCC1
→ -1.0% | 5.1% | 4.4% | -3.7%[2.33 µM] | -6.8% | 2.3%
#38 O=[N+]([O-])c1cc(Cl)ccc1N1CCN(c2cccc(C(F)(F)F)c2)CC1
→ ? | 11.2% | 2.4% | 25.1µM* | 0.1% | ?
#39 CCCOc1ccc(CNC(=S)Nc2ccccc2)cc1Cl
→ nt | nt | nt | 2.1% | -1.4% | 8.7%
#40 Cc1ccc(CNS(=O)(=O)c2c(C(=O)N3CCC(C)CC3)c(C)n(C)c2C)cc1
→ -3.8%[46 µM] | nt | nt | 1.8%[59 µM] | -0.7% | nt
#41 O=[N+]([O-])c1cc(Cl)ccc1N1CCCC1
→ 2.1%[46 µM] | ? | -6.3% | 20µM* | -0.9% | -1.8%
#42 Cc1nnc(-c2ccc(N3CCCCCC3)c([N+](=O)[O-])c2)o1
→ nt | nt | -3.3% | 44.7µM* | -49.4% | 7.7%
#43 COc1ccc(CCNC(=O)Cn2ncc3c(C)n(Cc4ccccc4F)c(C)c3c2=O)cc1OC
→ nt | nt | nt | 11.8%[59 µM] | -4.8% | nt
#44 Cc1nc(CSc2nnc(C)s2)cs1
→ -7.8% | 7.8% | -1.1% | 44.7µM* | -16.7% | -0.1%
